Experiment [1] addresses T1, alpha4beta2nAChRs (Homo sapiens, UniProt P17787+P43681). The following applies: co-expressed with lynx1; cited from earlier work.
The next experiment has as its target T2, alph4beta2 nAChRs (Homo sapiens, UniProt P17787+P43681).
T2 construct: expressed in transfected cells; host or cells: Xenopus oocytes injected with cRNA
Nature of the experiment: voltage-clamp recordings of xenopus oocytes heterologously expressing nAChR and lynx cRNA. The format is cell-based. As to conditions: coexpressed with a4b2 nAChRs in oocytes, 1 mM ACh. From the text:
FIG. 2. lynx polypeptides are nAChR modulatory polypeptides, as assessed by voltage-clamp recordings in a xenopus ooctye expression system. lynx1, lynx2 and lynx3 enhance desensitization of ACh-evoked currents mediated through a4b2 nAChRs in oocytes. A. Representative recordings of voltage clamped oocytes expressing a4b2 nAChRs alone, or in combination with lynx1, lynx2, lynx3 and ly6H. The inward currents were evoked by 20 sec periods of superfusion (horizontal calibration bar) with external saline containing 1 mM ACh. […] B and C. The differences in desensitization are shown with bar graphs. As described in (2), two exponentials equations were fitted to the desensitization currents during ACh application. Using these equations, fast (B) and slow (C) time constants were calculated and the average values of these constants for ACh responses are shown in B and C. […] Both constants are unaffected in oocytes coexpressing Ly6H.
The inward currents were evoked by 20 sec periods of superfusion (horizontal calibration bar) with external saline containing 1 mM ACh. […] B and C). The differences in desensitization are shown with bar graphs. As described in (2), two exponentials equations were fitted to the desensitization currents during ACh application. Using these equations, fast (B) and slow (C) time constants were calculated and the average values of these constants for ACh responses shown. […] Both constants are unaffected in oocytes coexpressing Ly6H.

The target in experiment [2] is T1, alpha4beta2nAChRs. Nature of the experiment: co-immunoprecipitation in transiently transfected HEK293 cells. The class given is binding. More on the design: expressed in transfected cells; host or cells: HEK293. The following applies: IP with nAChR antibodies, Western blot. From the text: Figures C-F depict co-immunoprecipitation studies of transiently transfected HEK293 cells with alpha4beta2 nAChRs co-transfected with lynx1 (C), lynx2 (D), lynx3 (E) and ly6H (F), a related family member.
(In western blotting, separated proteins are transferred to a membrane and probed.)

B1: lynx1: ly-6/uPAR family polypeptide, allosteric modulator of nicotinic acetylcholine receptors; mouse lynx1 (SEQ ID NO:3) (protein, listed as Mus musculus)
chain: MTHLLTVFLVALMGLPVAQALECHVCAYNGDNCFKPMRCPAMATYCMTTRTYFTPYRMKVRKSCVPSCFETVYDGYSKHASATSCCQYYLCNGAGFATPVTLALVPALLATFWSLL
With B1, in the experiment with alpha4beta2nAChRs [1], the desensitization entry is recorded as “more rapid desensitization”, the recovery from desensitization entry is reported as “recover more slowly from desensitization” and the “sensitivity of receptors to ACh” value is given as “less sensitive to ACh”. For the same molecule, in the experiment with alph4beta2 nAChRs (20 sec), the “desensitization of ACh-evoked currents during agonist application” value is recorded as “significantly faster desensitization”. In addition, in the experiment with alph4beta2 nAChRs (two-exponential fit), the “fast time constant of desensitization” value is given as “significantly faster” and the “slow time constant of desensitization (plateau phase)” value was “remained the same”. Further, the “association with nAChRs in co-immunoprecipitation” value with alpha4beta2nAChRs [2] is reported as “stable associations”.

Source of the values: US20080221013A1, “Neurobiological compositions” (priority 2006, published 2008).
